In the experiment the test system is ER at classical ERE, ERC1 cells. The experiment in a line: Estrogenic activity screen: CAT reporter gene linked to a classical ERE in ERC1 cells. Particulars: dose response 0-100 μM. It is filed as cell-based, human. In general terms: A reporter such as luciferase makes a cellular process visible.

SMILES strings stand for the structures.

With `Oc1ccc(/C=C/c2ccc(F)cc2)c(Cl)c1`, the “concentration of saturation / maximum activity” value came to 50 µM.

The values are drawn from patent publication US6884577B2, “Methods for screening compounds for estrogenic activity” (The Regents of the University of California, priority 1993, dated 2005).
